Experiment [1] deals with PSD-95 PDZ3 (Homo sapiens, UniProt P78352). The note with it: read-out: Ki, PSD-95 PDZ3; Table S1, CRIPT truncation study; FP; mean ± SEM, n≥3.
Experiment [2] has as its target T1, PSD-95 FL (Homo sapiens, UniProt P78352).
T1 construct: PSD-95 FL: 61-end; made in house; host or cells: E. coli (pET32m3C vector; construct donated by M. Zhang)
Kind of experiment: Fluorescence polarization (FP) binding assay, full length PSD-95. The note with it: read-out: Ki, PSD-95 FL, Table S1, CRIPT truncation study, mean ± SEM, n≥3. (In general: Polarisation of emitted light reports the rotation of a fluorescent probe.)

Amino acid sequences for entries named in this document (tags omitted). Residues count along the entry.
UniProt P78352, 313-393 limits assumed: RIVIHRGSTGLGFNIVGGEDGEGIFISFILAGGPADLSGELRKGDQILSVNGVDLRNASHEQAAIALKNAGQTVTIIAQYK
UniProt P78352, 61-724 limits assumed: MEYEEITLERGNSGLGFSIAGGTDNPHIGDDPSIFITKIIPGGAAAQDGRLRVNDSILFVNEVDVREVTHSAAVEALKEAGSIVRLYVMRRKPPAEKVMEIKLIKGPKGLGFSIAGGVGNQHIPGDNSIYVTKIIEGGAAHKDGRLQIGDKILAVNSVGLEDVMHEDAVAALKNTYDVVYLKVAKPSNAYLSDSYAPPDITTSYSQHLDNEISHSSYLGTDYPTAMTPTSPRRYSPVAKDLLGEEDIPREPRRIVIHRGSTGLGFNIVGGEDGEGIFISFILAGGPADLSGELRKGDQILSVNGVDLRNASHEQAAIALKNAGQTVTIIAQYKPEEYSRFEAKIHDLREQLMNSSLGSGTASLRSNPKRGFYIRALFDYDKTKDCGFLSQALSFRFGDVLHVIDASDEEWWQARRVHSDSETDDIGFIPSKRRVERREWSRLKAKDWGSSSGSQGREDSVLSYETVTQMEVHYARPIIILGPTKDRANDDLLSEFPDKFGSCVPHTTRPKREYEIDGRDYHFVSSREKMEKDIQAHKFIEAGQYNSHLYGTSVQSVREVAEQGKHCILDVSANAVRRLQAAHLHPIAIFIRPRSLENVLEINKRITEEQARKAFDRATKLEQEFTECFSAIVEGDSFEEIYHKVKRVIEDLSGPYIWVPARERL
UniProt P78352, 65-151: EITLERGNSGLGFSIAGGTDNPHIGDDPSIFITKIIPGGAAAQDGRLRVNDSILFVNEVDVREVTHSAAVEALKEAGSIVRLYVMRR
UniProt Q15700, 94-509: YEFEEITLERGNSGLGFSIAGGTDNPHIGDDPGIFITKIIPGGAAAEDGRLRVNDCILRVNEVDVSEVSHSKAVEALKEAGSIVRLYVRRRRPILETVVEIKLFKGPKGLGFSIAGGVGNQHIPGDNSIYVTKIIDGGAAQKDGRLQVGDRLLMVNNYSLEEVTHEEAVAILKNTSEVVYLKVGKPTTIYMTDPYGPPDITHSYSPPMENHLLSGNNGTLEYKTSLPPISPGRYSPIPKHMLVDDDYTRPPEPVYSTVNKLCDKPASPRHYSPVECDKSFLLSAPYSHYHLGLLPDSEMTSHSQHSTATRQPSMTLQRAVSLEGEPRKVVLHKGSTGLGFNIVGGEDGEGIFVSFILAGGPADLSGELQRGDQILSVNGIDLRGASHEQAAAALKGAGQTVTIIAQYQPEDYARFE
UniProt Q12959, 220-554: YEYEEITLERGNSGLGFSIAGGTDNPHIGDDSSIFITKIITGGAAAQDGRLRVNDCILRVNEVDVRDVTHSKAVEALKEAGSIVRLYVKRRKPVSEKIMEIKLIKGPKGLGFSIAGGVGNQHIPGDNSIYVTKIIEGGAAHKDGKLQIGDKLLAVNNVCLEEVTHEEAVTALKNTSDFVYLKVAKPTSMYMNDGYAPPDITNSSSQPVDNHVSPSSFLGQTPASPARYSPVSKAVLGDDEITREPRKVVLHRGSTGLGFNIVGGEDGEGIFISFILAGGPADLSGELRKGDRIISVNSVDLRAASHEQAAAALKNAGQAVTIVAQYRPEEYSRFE

The target of experiment [3] is PSD-95 PDZ1 (Homo sapiens, UniProt P78352). The note with it: read-out: Ki PDZ1; Table S2; monomeric GluN2B used as probe; mean ± SEM, n≥3.
The target in experiment [4] is T2, PSD-93 PDZ1-2-3 (Homo sapiens, UniProt Q15700).
T2 construct: PSD93 PDZ1-2-3: 94- 509; 7xHis; made in house; host or cells: E. coli BL21(DE3)pLysS
As to the kind of experiment: Fluorescence polarization (FP) binding assay, PSD-93 PDZ1-2-3. Particulars: Table S4, mean ± SEM, n≥3.

The target of experiment [5] is T3, SAP-97 PDZ1-2-3 (Homo sapiens, UniProt Q12959).
T3 construct: SAP97 PDZ1-2-3: 220-554; 7xHis; made in house; host or cells: E. coli BL21(DE3)pLysS
Kind of experiment: Fluorescence polarization (FP) binding assay, SAP-97 PDZ1-2-3. The note with it: Table S4, mean ± SEM, n≥3.

In experiment [6] the target is T4, SAP-102 PDZ1-2-3 (Homo sapiens, UniProt Q92796).
T4 construct: SAP102 PDZ1-2-3: 127-475; 7xHis; made in house; host or cells: E. coli BL21(DE3)pLysS
T4 sequence (Q92796 127-475): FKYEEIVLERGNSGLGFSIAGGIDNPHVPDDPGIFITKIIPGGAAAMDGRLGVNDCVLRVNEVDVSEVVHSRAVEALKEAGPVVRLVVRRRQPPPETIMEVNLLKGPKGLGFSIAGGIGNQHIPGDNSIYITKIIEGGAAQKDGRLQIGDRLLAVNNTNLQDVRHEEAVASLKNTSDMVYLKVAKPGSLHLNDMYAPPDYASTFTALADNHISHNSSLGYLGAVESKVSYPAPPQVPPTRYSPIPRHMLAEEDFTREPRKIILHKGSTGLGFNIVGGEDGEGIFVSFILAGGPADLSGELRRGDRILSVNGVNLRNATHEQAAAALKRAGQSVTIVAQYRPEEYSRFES
Kind of experiment: Fluorescence polarization (FP) binding assay, SAP-102 PDZ1-2-3. Particulars: Table S4, mean ± SEM, n≥3.

The mark [7] stands for this setting: competition of the probe with the unlabeled probe.
Where [8] appears, read: saturation binding of the probe.

Bounds are passed on as bounds.

As usually defined, the Ki is a dissociation constant, usually derived from enzyme kinetics or from competition with a known ligand. Broadly, the Kd is the equilibrium constant for the complex coming apart.

As to KNYKQTSV [CRIPT-08], the figures for the Ki in experiment [1] and in experiment [2] were 0.96 ± 0.5 µM and 2.1 ± 0.2 µM, respectively.

Turning to KQTSV [CRIPT-05], the figures for the Ki in experiment [1] and in experiment [2] were 8.2 ± 1 µM and 24 ± 4 µM, respectively.

Turning to LDTKNYKQTSV [CRIPT-11], the Ki in experiment [1] is 3 ± 0.6 µM; in experiment [2], 4.6 ± 0.3 µM.

On to NYKQTSV [CRIPT-07], for which the figures for the Ki in experiment [1] and in experiment [2] were 4 ± 0.3 µM and 3.7 ± 0.3 µM, respectively.

TKNYKQTSV [CRIPT-09]: the Ki in experiment [2] amounted to 3.1 ± 0.1 µM.

On to YKQASA [Compound 9], for which the inhibitory constant (Ki) in experiment [1] is > 50 µM.

Consider YKQTSV [Compound 1], for which the Ki in experiment [3] worked out at 86 ± 21 µM; in experiment [4] (setting [7]), 0.93 ± 0.02 µM; in experiment [5] (setting [7]) it was 1 ± 0.1 µM; in experiment [6] (setting [7]), 0.26 ± 0.04 µM; in experiment [1] it was 3.2 ± 1 µM. Moreover, the values for the Kd in experiment [4] (setting [8]), in experiment [5] (setting [8]) and in experiment [6] (setting [8]) were 0.83 ± 0.02 µM, 1.6 ± 0.1 µM and 0.59 ± 0.05 µM, respectively.

The record behind these values is article PMC4319893, “Targeting Protein-Protein Interactions with Trimeric Ligands: High Affinity Inhibitors of the MAGUK Protein Family” (PLoS ONE, 2015).
